Columns and labels:
[1] = system: breast cancer cell line MDA-MB-231; assay type: in vivo; details: nude mice, test dose range, daily oral
TrkA = TrkA (Homo sapiens (Human), UniProt P04629); experiment: Kinase inhibition assay (KinaseProfiler, 33P-ATP); assay type: biochemical; details: ATP at Km
c-RAF = c-RAF (Homo sapiens (Human), UniProt P04049); experiment: Kinase inhibition assay (KinaseProfiler, 33P-ATP); assay type: biochemical; details: ATP at Km
PTK5 = PTK5 (Homo sapiens (Human), UniProt P42685); experiment: Kinase inhibition assay (KinaseProfiler, 33P-ATP); details: ATP at Km

Sequences of proteins named here, by UniProt entry; tags and fusion partners are left off. A change or cut given only in a name is not applied to a line headed by its entry. Residues count along the entry.
UniProt P04629, 33-796: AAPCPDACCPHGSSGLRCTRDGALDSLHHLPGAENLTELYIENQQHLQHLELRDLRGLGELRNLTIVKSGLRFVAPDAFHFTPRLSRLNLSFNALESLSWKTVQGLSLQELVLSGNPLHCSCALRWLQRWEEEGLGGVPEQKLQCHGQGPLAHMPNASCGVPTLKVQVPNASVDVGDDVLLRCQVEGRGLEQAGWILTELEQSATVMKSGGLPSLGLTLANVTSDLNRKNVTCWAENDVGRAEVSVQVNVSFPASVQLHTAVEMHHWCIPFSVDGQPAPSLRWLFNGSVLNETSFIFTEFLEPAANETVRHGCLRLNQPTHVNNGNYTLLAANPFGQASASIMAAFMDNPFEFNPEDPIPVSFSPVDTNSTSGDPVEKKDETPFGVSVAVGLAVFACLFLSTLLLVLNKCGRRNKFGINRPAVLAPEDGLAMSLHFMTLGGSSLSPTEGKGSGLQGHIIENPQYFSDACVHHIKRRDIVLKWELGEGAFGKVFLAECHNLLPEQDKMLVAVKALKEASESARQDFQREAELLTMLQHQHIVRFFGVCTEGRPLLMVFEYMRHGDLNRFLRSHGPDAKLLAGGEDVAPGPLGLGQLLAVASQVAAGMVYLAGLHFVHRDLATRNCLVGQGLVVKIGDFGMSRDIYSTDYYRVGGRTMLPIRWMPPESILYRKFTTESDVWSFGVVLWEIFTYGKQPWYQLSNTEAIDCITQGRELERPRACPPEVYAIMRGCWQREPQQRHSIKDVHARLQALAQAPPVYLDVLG
UniProt P42685: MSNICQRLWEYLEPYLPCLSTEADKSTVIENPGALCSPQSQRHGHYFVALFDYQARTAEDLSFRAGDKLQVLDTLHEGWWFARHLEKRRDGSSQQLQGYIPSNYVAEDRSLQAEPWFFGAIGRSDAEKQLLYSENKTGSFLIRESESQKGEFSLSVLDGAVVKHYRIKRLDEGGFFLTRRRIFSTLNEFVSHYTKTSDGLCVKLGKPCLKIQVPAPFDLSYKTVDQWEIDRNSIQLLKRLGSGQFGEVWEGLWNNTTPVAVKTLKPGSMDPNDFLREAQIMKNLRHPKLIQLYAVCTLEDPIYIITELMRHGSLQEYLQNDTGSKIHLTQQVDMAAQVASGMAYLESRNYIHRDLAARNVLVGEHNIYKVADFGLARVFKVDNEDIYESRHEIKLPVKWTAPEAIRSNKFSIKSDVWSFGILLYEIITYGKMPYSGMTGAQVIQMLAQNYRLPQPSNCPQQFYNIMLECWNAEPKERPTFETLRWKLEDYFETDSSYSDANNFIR

IC50 (PTK5) | SMILES | toxicity / side effects (weight loss, rash, diarrhea) during administration [1] | IC50 (TrkA) | IC50 (c-RAF)
 | CCn1nc(C#Cc2cc(C(=O)Nc3ccc(CN4CCN(C)CC4)c(C(F)(F)F)c3)ccc2C)c2c(N)ncnc21 [Compound 3] | low toxicity | 27 nM | 27 nM
19 nM | Cc1ccc(NC(=O)c2ccc(C)c(C(F)(F)F)c2)cc1C#Cc1nn([C@H]2CC[C@H](O)CC2)c2ncnc(N)c12 [Compound 93] |  |  | 
